Publication PMC5986797, “Laminin heparin-binding peptides bind to several growth factors and enhance diabetic wound healing” (Nature Communications, 2018)

System: recombinant human laminin isoforms (–111, –211, –332, –411, –421, –511, and –521)
Experiment: ELISA: binding of full-length laminin isoforms to absorbed GFs and CXCL chemokines
Conditions: 50 nM GF coated, 10 nM laminin; signals greater than 0.1 indicate binding; n = 4
Experimental: Ninety-six-well ELISA plates (med-binding, Greiner Bio-One) were coated with 50 nM GFs in 100 µL/well of phosphate-buffered saline (PBS) at 37 °C for more than 2 h. After blocking with 2% BSA solution containing PBS and 0.05% Tween 20 (PBS-T), 10 nM recombinant human laminin isoforms (–111, –211, –332, –411, –421, –511, and –521) (>95% purity tested by SDS-PAGE, BioLamina) in 100 µL/well PBS were added. Bound laminin was detected with 100 µL/well rabbit anti-human LAMC1 polyclonal antibody (Assay Biotech, Catalog No. C13072, 1:1000 dilution in PBS) or rabbit anti-human LAMA3 polyclonal antibody (Assay Biotech, Catalog No. C13066, 1:1000 dilution in PBS). After incubation with biotinylated anti-rabbit antibody for 60 min at room temperature (RT), HRP-conjugated streptavidin (Jackson ImmunoResearch) was added. After 60 min of incubation at RT, 50 μL of TMB substrate (Sigma-Aldrich) was added. The reactions were stopped by adding 25 μL of 2 N H2SO4. Subsequently, the absorbance at 450 nm was measured with a reference of 570 nm.

“BMP-2: bone morphogenetic protein, PeproTech” was tested, and the “binding to all tested laminin isoforms (ELISA, A450 nm)” value was “showed binding”.
